Earlier results, collected in patent US12065468B2, “Heme-binding small peptide” (priority 2021, dated 2024).

Conditions: literature; read-out: KD for heme; cited from earlier work

In the case of “serum albumin: protein loosely binding labile heme”, the Kd is given as 40 µM.
